## OPERA 2.9 data: properties

From the experimental data distributed with OPERA 2.9.

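These are experimental values that the OPERA curators gathered from public databases to train and test their QSAR models. The files give a single number for a compound and property, which may rest on several reports. Conditions of the individual experiments are not part of the data. Where a salt, mixture or single isomer is drawn, the source does not say that exactly this form was tested. Unmarked limits or estimates from the upstream databases cannot be ruled out.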

The melting point is given in degrees Celsius.
The boiling point refers to atmospheric pressure (760 mmHg), by the definition of the set.
logP is the log10 of the octanol-water partition coefficient; higher is more lipophilic.
Water solubility is log10 of mol/L, nominally at 25 °C; higher is more soluble.
Vapor pressure is log10 of mmHg; the set covers 15 to 30 °C, mostly 20 to 25 °C.
Henry's law constant (air-water partitioning) is log10 of atm·m3/mol, nominally at 25 °C.
fu is the fraction unbound in human plasma, from 0 to 1.
Intrinsic clearance (human, µL/min per 10^6 hepatocytes): higher is faster turnover, and 0 stands for none detected.

The entry for CCCCCCCCCCCCCCCCCC(=O)OCCOC(C)=O [Acetylated glycol stearate] lists melting point 35 °C and log Kow 10.2 and vapor pressure -5.018 (log10 mmHg).
The entry for CC(O)C1C(=O)N2C(C(=O)O)=C(SC3CNC(C(=O)N(C)C)C3)C(C)C12.O.O.O (stereo unspecified) [Meropenem trihydrate] lists log Kow -0.6 and log solubility -1.89 (log10 mol/L).
The entry for Cc1cc(C)cc(N)c1 [3,5-Dimethylaniline] lists log Kow 1.83 and log solubility -1.402 (log10 mol/L) and vapor pressure -0.011 (log10 mmHg).
The entry for COc1nc(C)nc(NC(=O)NS(=O)(=O)c2ccccc2OCCCl)n1 [Triasulfuron] lists vapor pressure -7.813 (log10 mmHg) and Henry's law constant -9.103 (log10 atm·m3/mol) and plasma fu 0.02251 and intrinsic clearance 14.58 µL/min/10^6 cells.
The entry for CC(C)N(C(=O)CO)c1ccc(F)cc1 [Acetamide, N-(4-fluorophenyl)-2-hydroxy-N-(1-methylethyl)-] lists melting point 55 °C and log Kow 1.6 and vapor pressure -3.137 (log10 mmHg).
The entry for CCCCCCCCCCCCCC[Si](C)(Cl)Cl [Dichloro(methyl)tetradecylsilane] lists melting point 6 °C and vapor pressure -3.417 (log10 mmHg).
The entry for O=c1c2ccccc2c2ccc3sc4ccccc4c4ccc1c2c34 [14H-Anthra[2,1,9-mna]thioxanthen-14-one] lists melting point 314 °C and log Kow 3.6 and log solubility -7.983 (log10 mol/L).
The entry for COc1ccc(/C=C(\C#N)C(=O)OCC(C)(C)C2OCC3(CO2)COC(C(C)(C)COC(=O)/C(C#N)=C/c2ccc(OC)c(OC)c2)OC3)cc1OC (stereo partly drawn) lists melting point 202 °C and boiling point 380 °C and log Kow 6.3 and log solubility -7.472 (log10 mol/L).
The entry for CCOC(=O)c1ccc(N)cc1 [Benzocaine] lists vapor pressure -3.585 (log10 mmHg) and plasma fu 0.338 and intrinsic clearance 132 µL/min/10^6 cells.
The entry for Cc1[nH]c(=O)c(C#N)cc1-c1ccncc1 [Milrinone] lists log Kow 0.4 and log solubility -3.005 (log10 mol/L).
The entry for CCCCCCCC(=O)NCC(=O)O [Glycine, N-(1-oxooctyl)-] lists melting point 110 °C and log Kow 2.052 and log solubility -2.112 (log10 mol/L).
The entry for C=CCOC(=O)C(C)(C)OC(=O)c1cc([N+](=O)[O-])ccc1Cl lists melting point 47 °C and log Kow 3.5 and log solubility -4.436 (log10 mol/L) and vapor pressure -6.107 (log10 mmHg).
The entry for O=C1c2ccccc2C(=O)c2c1ccc1nc(-c3cc(Cl)c(-c4nc5ccc6c(c5[nH]4)C(=O)c4ccccc4C6=O)cc3Cl)[nH]c21 lists log Kow -0.1 and log solubility -4.525 (log10 mol/L).
The entry for CC(O)COC(=O)O[C@@H]1C[C@H](C)CC[C@H]1C(C)C (stereo partly drawn) lists melting point -21 °C and log Kow 3.72 and log solubility -3.464 (log10 mol/L) and vapor pressure -4.133 (log10 mmHg).
The entry for C=CC1=C(C(=O)O)N2C(=O)[C@@H](NC(=O)/C(=N\O)c3csc(N)n3)[C@H]2SC1 [Cefdinir] lists log Kow -0.2 and log solubility -3.654 (log10 mol/L).
The entry for CC(C)[C@@H]1CC[C@@H](C)C[C@H]1OC(=O)[C@@H]1O[C@@H](O)CS1 lists melting point 95.6 °C and log Kow 3.18.
The entry for C[SiH2]Cl [Chloro(methyl)silane] lists boiling point 7 °C and vapor pressure 2.314 (log10 mmHg).
The entry for CCCCCCCCCCCCCCCCCCCCCC(=O)NCCCN(C)C [N-(3-(Dimethylamino)propyl)docosanamide] lists melting point 79.4 °C and log solubility -4.674 (log10 mol/L).
The entry for Nc1nc(=O)c2ncn(CCC(CO)CO)c2[nH]1 [Penciclovir] lists log Kow -1.1 and log solubility -2.173 (log10 mol/L).
The entry for CCOC(=O)[C@@H](N)[C@@H](C)O [L-Threonine, ethyl ester] lists melting point 56 °C and vapor pressure -2.35 (log10 mmHg).
The entry for Nc1cc(S(=O)(=O)O)ccc1S(=O)(=O)O [2-Aminobenzene-1,4-disulfonic acid] lists log Kow -0.886 and log solubility -1.812 (log10 mol/L).
The entry for CCCC1CC(=O)C=C(C)C1 (stereo unspecified) [2-Cyclohexen-1-one, 3-methyl-5-propyl-] lists log Kow 2.65 and log solubility -1.773 (log10 mol/L) and vapor pressure -1.358 (log10 mmHg).
The entry for CNC[C@H](O)CC12CCC(c3ccccc31)c1ccccc12 [Levoprotiline] lists plasma fu 0.19 and intrinsic clearance 3.037 µL/min/10^6 cells.
The entry for CC1(C)[C@@H]2CC[C@@](C)(O)[C@H]1C2 [cis-2-Pinanol] lists log Kow 2.98 and log solubility -2.252 (log10 mol/L) and vapor pressure -1.301 (log10 mmHg).
The entry for CC(C)CC1CC(C)CCO1 (stereo unspecified) [2-Isobutyl-4-methyltetrahydro-2H-pyran] lists log Kow 4.3 and log solubility -3.08 (log10 mol/L) and vapor pressure -0.016 (log10 mmHg).
The entry for CCOC(=O)C1CC(=O)C(=C(O)C2CC2)C(=O)C1 (stereo unspecified) [Trinexapac-ethyl] lists log solubility -3.171 (log10 mol/L) and Henry's law constant -8.273 (log10 atm·m3/mol) and intrinsic clearance 3.82 µL/min/10^6 cells.
The entry for CCC(C)Nc1ccc(Cc2ccc(NC(C)CC)cc2)cc1 (stereo unspecified) [4,4'-Bis(sec-butylamino)diphenylmethane] lists log Kow 5.4 and log solubility -5.337 (log10 mol/L) and vapor pressure -7.999 (log10 mmHg).
The entry for CC(C)[C@@]12CC[C@@](C)(O1)[C@@H](O)C2 (relative stereo) lists melting point 60 °C and boiling point 225.8 °C and log Kow 1.02 and vapor pressure -0.292 (log10 mmHg).
The entry for c1ccc(SCCSc2ccccc2)cc1 [1,2-Bis(phenylthio)ethane] lists log solubility -7.091 (log10 mol/L) and vapor pressure -4.369 (log10 mmHg).
The entry for CC1=CC(C)C(CO)C(C)C1 (stereo unspecified) [2,4,6-Trimethylcyclohex-3-ene-1-methanol] lists log Kow 3.6 and log solubility -2.371 (log10 mol/L) and vapor pressure -1.745 (log10 mmHg).
The entry for O=CC1=C(Cl)/C(=C/O)CCC1 [(3E)-2-Chloro-3-(hydroxymethylene)cyclohexene-1-carbaldehyde] lists log Kow 1.45 and log solubility -2.574 (log10 mol/L).
The entry for COc1ccc(/C=C(\C#N)C(=O)O)cc1OC [(E)-2-Cyano-3-(3,4-dimethoxyphenyl)prop-2-enoic acid] lists melting point 188 °C and log Kow -0.221 and vapor pressure -5.333 (log10 mmHg).
The entry for CNS(=O)(=O)CCc1ccc2[nH]cc(C3CCN(C)CC3)c2c1 [Naratriptan] lists log Kow 1.6 and log solubility -3.469 (log10 mol/L).

A selection of 2 entries from above:

{"smiles": "Cc1[nH]c(=O)c(C#N)cc1-c1ccncc1", "name": "Milrinone", "log Kow": "0.4", "log solubility (log10 mol/L)": "-3.005"}
{"smiles": "O=CC1=C(Cl)/C(=C/O)CCC1", "name": "(3E)-2-Chloro-3-(hydroxymethylene)cyclohexene-1-carbaldehyde", "log Kow": "1.45", "log solubility (log10 mol/L)": "-2.574"}